## scFv variants of Ab-95 (light chain) against a SARS-CoV-2 spike peptide

Target peptide (SARS-CoV-2 spike, HR2 region): PDVDLGDISGINAS

The variants keep the heavy chain, the linker and the frameworks of Ab-95 (scFv order VH, three GGGGS repeats, VL).
VH: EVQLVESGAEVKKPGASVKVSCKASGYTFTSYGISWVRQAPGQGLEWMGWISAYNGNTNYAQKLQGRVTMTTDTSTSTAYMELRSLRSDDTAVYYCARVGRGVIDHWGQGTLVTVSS
VL: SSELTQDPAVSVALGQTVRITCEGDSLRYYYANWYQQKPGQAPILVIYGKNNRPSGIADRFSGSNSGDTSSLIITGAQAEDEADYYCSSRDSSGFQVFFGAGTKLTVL

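The starting antibody came from a phage panning campaign against this peptide. AAYL52 was designed without a model: most single CDR substitutions and a random sample of double and triple ones. Affinity was read by AlphaSeq, a pooled yeast mating assay with surface-displayed partners. Mating (16 h, 30 °C) was followed by selection of diploids and sequencing of their barcodes. The ratio of observed to expected reads was calibrated, replicate by replicate, on BCL2-family standards whose Kd was known from biolayer interferometry. Each pool was mated in three replicate cultures.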

Substitutions are numbered in sequence along the VL above, starting at 1 (not Kabat). The read-out is the apparent dissociation constant on a log10 scale (nM): the lower, the stronger. A mean of the replicates is given; it leaves out those without a signal. "nd" means that the variant was in the library but no mating with the target was seen in that replicate; the authors take this as a sign of poor binding, and no number exists. In this assay the parent's reference entry averaged 2.31; its copy inside this library read 2.25. Nonspecific signal, from three strains lacking the peptide, appeared in 28% of pairings of library AAYL52, centred on 3.91 (5% of these signals below 2.90); values are not corrected for it. Also given: how often the same scFv was detected with the empty control strains, with their mean in brackets.

changes,"replicates, log10 nM","log10 Kd (nM), mean",empty controls
A32S+N33H+P54I,4.55 nd 4.44,4.50,5/9 (3.95)
Y29V+R90V,nd nd nd,nd,3/9 (3.91)
P54D+S55G+G94T,4.69 3.94 nd,4.32,1/9 (3.64)
G24K+K50D+S88P,nd nd nd,nd,1/9 (3.60)
S55D+S93T+Q96H,1.66 1.69 1.63,1.66,4/9 (3.70)
S26A+N33C+D91Y,5.48 5.15 4.30,4.97,4/9 (3.57)
E23K+L27K+S92H,3.04 3.37 4.52,3.64,5/9 (4.05)
Y30I+A32G+R90V,2.98 nd nd,2.98,1/9 (3.75)
D25S+Y30E,1.37 1.15 0.64,1.05,6/9 (4.14)
G49E+G94C+V97E,nd 2.41 nd,2.41,0/9
S26V+L27C+V97A,nd nd nd,nd,2/9 (4.03)
N33L+N51I+Q96S,4.62 nd 4.22,4.42,3/9 (4.23)
G24I+A32F+G94W,4.29 nd 4.25,4.27,2/9 (3.72)
Y31H+N51T+F98K,nd nd nd,nd,4/9 (3.77)
K50D+P54R+D91G,2.85 2.48 2.54,2.62,5/9 (4.48)
S26R+R28P+Y29G,2.99 3.12 3.51,3.21,0/9
Y30F+S93I+Q96A,4.70 nd nd,4.70,1/9 (4.23)
L27K+Y30D+K50L,2.45 2.77 2.02,2.41,2/9 (4.46)
S26D+R28H+N51T,3.26 3.34 3.11,3.24,5/9 (4.19)
L27V+Y29C+F95R,2.79 3.15 2.46,2.80,3/9 (3.60)
R28W+A32S,3.65 3.24 2.91,3.27,4/9 (4.19)
E23T+Y31W+K50T,3.05 2.94 2.46,2.81,6/9 (4.13)
S26F+L27Q+S89W,4.58 nd nd,4.58,1/9 (4.21)
E23Y+R28V+Y31E,2.08 2.11 1.64,1.94,3/9 (3.72)
D25C+N51H+S92N,4.93 4.30 nd,4.61,5/9 (3.82)
E23L+D25E+V97C,3.26 nd nd,3.26,0/9
G24H+P54F+S92L,3.89 3.24 nd,3.56,4/9 (4.43)
D25F+N33S+S93M,4.72 4.21 4.25,4.39,2/9 (3.60)
G24Q+P54E+S93A,5.14 nd nd,5.14,4/9 (3.97)
A32R+S89H+D91E,3.79 4.40 2.93,3.71,3/9 (3.76)
L27W+R53M+S93L,nd nd nd,nd,1/9 (4.37)
G24Q+Y30Q+P54E,3.12 2.46 3.71,3.09,0/9
D91V+S92Y,1.79 2.14 1.16,1.70,3/9 (4.01)
Y29F+R53F+G94Y,5.23 nd nd,5.23,5/9 (4.03)
Y30V+S88R+V97G,nd 3.58 2.79,3.18,1/9 (4.09)
G49Q+K50W+R90A,3.64 3.70 nd,3.67,1/9 (4.03)
E23Q+F95W,1.81 1.66 1.85,1.77,3/9 (4.08)
N52W+R53S+R90F,4.12 2.91 nd,3.51,1/9 (4.14)
D25W+G49A+R53H,nd 3.57 nd,3.57,2/9 (4.02)
S26I+R90S+V97I,nd nd 4.16,4.16,2/9 (4.02)
L27I+Y30I+S55V,nd nd 3.19,3.19,1/9 (3.37)
S89L+G94N,2.66 3.25 2.83,2.91,1/9 (4.26)
D25V+S92A,3.05 2.77 3.39,3.07,2/9 (3.21)
K50M+N52W+S93L,nd 3.39 nd,3.39,1/9 (5.24)
N33R+D91K+S93W,nd 3.94 nd,3.94,3/9 (4.08)
K50S+S92I+Q96L,4.55 nd 4.42,4.49,2/9 (4.28)
E23Q+R53T+R90E,2.52 2.29 1.50,2.10,2/9 (3.24)

Again, the first 3 entries without any signal:

changes,"replicates, log10 nM","log10 Kd (nM), mean",empty controls
Y29V+R90V,nd nd nd,nd,3/9 (3.91)
G24K+K50D+S88P,nd nd nd,nd,1/9 (3.60)
S26V+L27C+V97A,nd nd nd,nd,2/9 (4.03)

From the AlphaSeq antibody data of Engelhart et al. 2022 (doi:10.1038/s41597-022-01779-4), copy in the FLAb collection.